## Binding of CDR-mutated scFvs to a peptide of the spike HR2 region

Data: MIT Lincoln Laboratory AlphaSeq set, Engelhart et al. 2022, doi:10.1038/s41597-022-01779-4, as distributed in FLAb.

Target: peptide PDVDLGDISGINAS, taken from heptad repeat 2 (HR2) of SARS-CoV-2 spike.

Parent: Ab-14, a human scFv built as VH, a (GGGGS)3 linker, VL. Only the CDRs of the light chain vary.
VH: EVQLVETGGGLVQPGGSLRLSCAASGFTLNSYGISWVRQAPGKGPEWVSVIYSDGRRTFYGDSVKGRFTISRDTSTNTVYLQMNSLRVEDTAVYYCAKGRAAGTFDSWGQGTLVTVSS
VL: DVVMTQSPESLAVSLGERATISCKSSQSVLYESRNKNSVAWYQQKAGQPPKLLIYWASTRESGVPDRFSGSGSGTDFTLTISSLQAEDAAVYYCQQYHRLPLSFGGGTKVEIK

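In library AAYL50, one, two or three CDR residues were substituted; doubles and triples were drawn at random. Affinity was read by AlphaSeq, a pooled yeast mating assay with surface-displayed partners. After mating in shaken culture at 30 °C for 16 h, diploids were selected and their barcode pairs sequenced. Scores were corrected for input abundance and mapped to Kd with protein pairs of known affinity run in the same pool. The assay was run in three technical replicates.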

Each variant is given by its three light chain CDRs, as the data file delimits them; those of the parent are KSSQSVLYESRNKNSVA, WASTRES, QQYHRLPLS. Numbers give log10(Kd / nM), so 0 is 1 nM and 3 is 1 µM. Smaller is tighter. Replicates are averaged; those with no signal do not enter the mean. "n.d." marks a missing value. The strain was present, yet no cells mated with the target were sequenced in that replicate, which points to weak or no binding. Three control strains display no target. For library AAYL50, 18% of the pairings with them gave a signal, with a median of 4.19 and one signal in twenty below 2.99, so weak values seen in few replicates may be background. For each scFv, signals with the empty controls are counted beside the result, with their mean in brackets. For reference, the parent read 0.65 as the reference entry and 1.68 as a member of this library.

| # | CDR-L1 | CDR-L2 | CDR-L3 | log10 Kd (nM) by replicate | log10 Kd (nM), mean | empty controls |
|---|---|---|---|---|---|---|
| 1 | KSSQSVLYRSRNKNLVN | WASTRES | QQYHRLPLS | n.d. / n.d. / n.d. | n.d. | 0/9 |
| 2 | KTHQSVLYESRNKNSVA | WASTRAS | QQYHRLPLS | 0.61 / 0.74 / 0.66 | 0.67 | 3/9 (4.23) |
| 3 | KSSQSVLYESRNKNSVA | WKSTPES | QQYHRLPIS | n.d. / n.d. / n.d. | n.d. | 4/9 (4.04) |
| 4 | KSSQSGLPESRNKNSFA | WASTRES | QQYHRLPLS | 2.78 / 2.60 / 2.26 | 2.55 | 2/9 (3.58) |
| 5 | KSSQSVLYESRNKNSVA | WASTRES | MIYHRKPLS | n.d. / n.d. / n.d. | n.d. | 1/9 (2.93) |
| 6 | KSNQSVLYESRNKNSVA | WASTREV | QQYHRLPLS | 1.36 / 1.52 / 1.60 | 1.49 | 2/9 (4.14) |
| 7 | KSSQSVLYESRNKGSVA | WAATRES | QQYHNLPLS | n.d. / 3.94 / 4.85 | 4.39 | 3/9 (4.40) |
| 8 | KSSQSVLGESRNKNSMA | WASTREK | QQYHRLPLS | 0.86 / 1.02 / 0.83 | 0.91 | 0/9 |
| 9 | KSSQSVLYENKNKNSVA | WASTRES | QQYHRLPTS | 2.18 / 2.09 / 2.09 | 2.12 | 1/9 (4.47) |
| 10 | KSSQSVLYESRNLNSVA | WASTRQS | QWYHRLPLS | 0.68 / 0.99 / 0.79 | 0.82 | 0/9 |
| 11 | KSSQSVLYESPNKNSVA | DASYRES | QQYHRLPLS | -0.24 / 0.12 / -0.16 | -0.09 | 0/9 |
| 12 | KSSQSVLYESRNKNSVA | WASTRES | GQTHRLPLS | n.d. / n.d. / n.d. | n.d. | 1/9 (4.14) |
| 13 | KSSQFQNYESRNKNSVA | WASTRES | QQYHRLPLS | 0.21 / 0.57 / 0.34 | 0.37 | 1/9 (2.54) |
| 14 | KSSQSVLYESRNKNSVS | WASHMES | QQYHRLPLS | n.d. / n.d. / n.d. | n.d. | 0/9 |
| 15 | KDSQSVLYESRNKNSVA | WADTRES | QQYHRLCLS | n.d. / n.d. / n.d. | n.d. | 3/9 (4.40) |
| 16 | GSSQSSLYESRNKNSVA | WASTRES | QKYHRLPLS | n.d. / n.d. / n.d. | n.d. | 0/9 |
| 17 | KSSQSVLHCSRNKNSVA | WASTRES | RQYHRLPLS | 3.45 / n.d. / n.d. | 3.45 | 1/9 (3.16) |
| 18 | KSSQWVLYESRNKNVVA | WASTRES | QQYHRLPLS | n.d. / n.d. / n.d. | n.d. | 1/9 (4.41) |
| 19 | KSSQSDLYESRNKNSVA | WAHTRES | QWYHRLPLS | 4.67 / 2.57 / n.d. | 3.62 | 0/9 |
| 20 | KSSQSVLYESRNKNIVA | WASTRHS | QQYYRLPLS | 2.56 / 2.58 / 3.07 | 2.74 | 3/9 (3.95) |
| 21 | KCSQSVCYESRNKNSVA | WASTRES | QQYQRLPLS | 0.06 / 0.40 / 0.18 | 0.21 | 2/9 (5.17) |
| 22 | KSSQSVSYESRNKNSVA | GASTAES | QQYHRLPLS | 1.66 / 1.69 / 1.83 | 1.73 | 3/9 (4.03) |
| 23 | ASSDSVLYESRNKNSVA | WASTRES | QQYHRLPLS | 1.01 / 1.25 / 1.07 | 1.11 | 2/9 (4.31) |
| 24 | KSEQSVLYENRNKNSVA | WASTRES | QQYNRLPLS | 1.19 / 1.24 / 1.15 | 1.19 | 0/9 |
| 25 | KSSQSVLYESRNKNNVA | WASTRES | QQYYRLPLE | 0.31 / 0.34 / 0.32 | 0.32 | 0/9 |
| 26 | KSSQSVLYESQNKNSVA | WASTRIS | QQWHRLPLS | n.d. / n.d. / n.d. | n.d. | 1/9 (2.52) |
| 27 | KSSQSVLYESRNKNSVH | WASIRES | QQYHRLPTS | n.d. / n.d. / n.d. | n.d. | 2/9 (3.95) |
| 28 | KSSQSVLYESRNKNSVA | WASTRES | QLYSRLPSS | 0.66 / 0.83 / 0.76 | 0.75 | 0/9 |
| 29 | KSSQSVLYVSRNKNSVA | MASTRES | QQYHRAPLS | n.d. / n.d. / n.d. | n.d. | 0/9 |
| 30 | KSDQSVLYESTNKNSVA | WAITRES | QQYHRLPLS | 2.54 / 2.33 / 2.73 | 2.53 | 1/9 (3.77) |
| 31 | KSSQSVLYESRNKNFVA | WASTRES | QQYHRKPLS | n.d. / n.d. / n.d. | n.d. | 0/9 |
| 32 | KSSQSVLYESRNKNSVA | VASYRES | QQWHRLPLS | n.d. / n.d. / n.d. | n.d. | 1/9 (3.06) |
| 33 | KSSQSVLYESRNKNSRA | WASSRES | QWYHRLPLS | n.d. / n.d. / n.d. | n.d. | 1/9 (3.44) |
| 34 | KSSQSVLYCSRNKNSVA | WASTRLS | QQYHRLPLS | 3.67 / n.d. / 4.65 | 4.16 | 2/9 (4.80) |
| 35 | KSSQSLLYESRWKNSVA | WASTRES | QQYHRLPFS | 0.64 / 0.85 / 0.75 | 0.75 | 3/9 (5.17) |
| 36 | KSSQSVLYIQRNKSSVA | WASTRES | QQYHRLPLS | 3.34 / 3.09 / 2.90 | 3.11 | 7/9 (4.33) |
| 37 | KSSESVRYESRNYNSVA | WASTRES | QQYHRLPLS | 1.08 / 1.29 / 1.24 | 1.20 | 6/9 (4.40) |
| 38 | KSSQSVLYESRNKNSVA | WASTRES | QQFHRYPCS | n.d. / n.d. / n.d. | n.d. | 0/9 |
| 39 | KFSQSVLVESRNKNSVA | WASTRES | QQYHRLKLS | n.d. / 3.24 / n.d. | 3.24 | 0/9 |
| 40 | KSSQSVLYESRNKNSGA | WASTRES | QAYHKLPLS | 2.17 / 2.48 / 3.07 | 2.57 | 1/9 (3.84) |
| 41 | KSSQSVLYESRNKNSKA | WASTRES | QQYHRLPLR | n.d. / n.d. / n.d. | n.d. | 2/9 (4.63) |
| 42 | KSSFSVLYESRNNNSVA | WASTRES | QQYHMLPLS | n.d. / n.d. / n.d. | n.d. | 0/9 |
| 43 | KSSQSVLYEMLNKNSVA | WASTRES | QQYHRLHLS | n.d. / n.d. / n.d. | n.d. | 0/9 |
| 44 | KSSQSVLYESRNKNSVA | WASIRES | AQYHRLPLS | 3.11 / 3.04 / 3.34 | 3.16 | 6/9 (4.12) |
| 45 | KSSQSGLYESRNKGSVA | WASTRES | QQYHRLPLS | 1.26 / 1.26 / 1.20 | 1.24 | 0/9 |
| 46 | KSSQSVEYESRNKNSVA | WASTRES | QSEHRLPLS | n.d. / n.d. / n.d. | n.d. | 1/9 (3.77) |
| 47 | KSSQSVWYRSRNRNSVA | WASTRES | QQYHRLPLS | 1.44 / 1.94 / 2.61 | 2.00 | 0/9 |
| 48 | KSSQSVLYESRNKFSVA | WASERES | QQYQRLPLS | 0.66 / 1.04 / 0.99 | 0.90 | 2/9 (4.65) |
| 49 | KSSQSVLYESANKNSVA | WASTDES | QQYFRLPLS | 5.40 / n.d. / 4.72 | 5.06 | 3/9 (4.20) |

The first 3 variants above that were never detected:

CDR-L1	CDR-L2	CDR-L3	log10 Kd (nM) by replicate	log10 Kd (nM), mean	empty controls
KSSQSVLYRSRNKNLVN	WASTRES	QQYHRLPLS	n.d. / n.d. / n.d.	n.d.	0/9
KSSQSVLYESRNKNSVA	WKSTPES	QQYHRLPIS	n.d. / n.d. / n.d.	n.d.	4/9 (4.04)
KSSQSVLYESRNKNSVA	WASTRES	MIYHRKPLS	n.d. / n.d. / n.d.	n.d.	1/9 (2.93)